Literature values, collected in publication PMC5724361 (ACS chemical biology, 2017).

By UniProt entry, the sequences of proteins in these tests, tags left out. Residues count along the entry.
UniProt P05067, 672-711 limits assumed: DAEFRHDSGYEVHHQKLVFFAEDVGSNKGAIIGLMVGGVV

Molecular target: Aβ1–40 (Homo sapiens, UniProt P05067)
Settings: cited from earlier work

Leucine enkephalin acetate hydrate
KD of Aβ:leucine enkephalin complexes: in the µM range
